Yeast mating assay B: variants of the scFv Ab-14

The target is the same throughout: PDVDLGDISGINAS, from the HR2 region of SARS-CoV-2 spike.

Each scFv is VH, the linker GGGGSGGGGSGGGGS, VL, as in the parent Ab-14, and differs from it in the CDRs of the heavy chain only.
VH: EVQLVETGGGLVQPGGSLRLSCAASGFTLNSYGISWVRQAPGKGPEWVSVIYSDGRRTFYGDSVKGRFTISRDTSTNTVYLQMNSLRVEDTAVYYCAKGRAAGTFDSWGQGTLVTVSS
VL: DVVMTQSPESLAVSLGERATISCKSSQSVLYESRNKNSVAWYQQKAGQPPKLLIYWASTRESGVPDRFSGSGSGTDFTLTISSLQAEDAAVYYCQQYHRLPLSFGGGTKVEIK

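These sequences belong to a second round, designed from the earlier measurements on random variants of the parent. Group labels follow the data file (Ctrl: baseline library sampled from a position-specific scoring matrix, with some repeated check sequences; Rand: our label for a block that the file lists under HC and that is probably the random mutants of the ten best first-round binders; En: ensemble of fine-tuned language models; HC: hill climbing; Gen: genetic algorithm; Gibbs: Gibbs sampling; a sequence that several methods proposed may carry one label only). In AlphaSeq, yeast of one mating type display the scFv and yeast of the other type display the target. After mating in shaken culture at 30 °C for 16 h, diploids were selected and their barcode pairs sequenced. A regression on co-assayed BCL2-family reference pairs converts the normalised counts of each replicate to an apparent Kd. There are six technical replicates.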

Variants are written as CDR1, CDR2 and CDR3 of the heavy chain (limits as in the source). Parent: GFTLNSYGIS, VIYSDGRRTFYGDSVK, GRAAGTFDS.
Variants here have more than six changes.
Each Kd is an estimate from the mating assay, the geometric mean of the replicates in which the pair was seen; lower is stronger.
An entry "not detected" has no value in the source: the pair was not observed among the diploids in any replicate. This suggests poor binding but is not conclusive.
Of ten entries with the parent sequence, four were seen in most replicates (averages 2.2 nM to 240 nM), three in one and three in none, so single entries are noisy.
The authors' rule: three or more of the six replicates give a measured affinity, fewer mean a poor binder.
Empty control strains, which show no peptide, gave a signal in 1% of pairings with all heavy chain designs; the median was 120 nM and 95% of these signals were weaker than 7.0 nM. No background was subtracted.
A sequence measured in both rounds can read differently, since the two assays cover different ranges.

CDR-H1	CDR-H2	CDR-H3	group	Kd (apparent)	detected
GKSLDEYGIS	VIYADGMRTMYTDSVK	GQLDDGMQL	En_Gibbs	not detected	0/6
GFDLNEYGIS	VIYADGRRTAYIDSVK	GEIAGTFNS	En_HC	250 pM	6/6
GFDLNEYGIS	VIYADGVRTAYADSVK	GTNAGTFDQ	En_Gen	1.1 nM	6/6
GFDLNEYGIS	VIYADGRRTAYTDNVK	GQNAGTFDS	En_HC	100 pM	6/6
GFDLNEYGIS	VIYADGRRTAYTDSVK	GEAAGTFDL	En_HC	550 pM	6/6
GKDLEEYGIS	VIYADGMRQAYKESVK	GQVAGIGKF	En_Gibbs	2.4 nM	6/6
GFDLNSYEIS	VIFSGGRRTPYGDSVK	GRAAGWFNS	Rand	not detected	0/6
GFDLNEYGIS	VIYADGKRTMYADSVK	GNVAGTFDV	En_Gen	1.8 nM	5/6
GEDLQKYGIS	VIYADGQRQYYSDDVK	GQVAGHFLV	En_Gibbs	not detected	0/6
GFDLEEYGIS	VIYADGQREAYTENVK	GNSMGMDML	En_Gibbs	not detected	0/6
GFDLNEYGIS	VIYADGMRTFYADNVK	GNVAGTFDL	En_Gen	680 pM	6/6
GFDLNEYGIS	VIYADGMRSFYADSVK	GNVAGTFDV	En_Gen	780 pM	6/6
GFDLNEYGIS	VIYADGSRTFYADSVK	GENAGTFDQ	En_HC	1.1 nM	6/6
GFDLEEYGIS	VIYADGMRTAYADSVK	GENAGTFDI	En_Gen	830 pM	6/6
GFDLNEYGIS	VIYADGMRTFYDDSVK	GQLAGTFDA	En_HC	28 pM	5/6
GFDLNEYGIS	VIYADGMRTAYADDVK	GQTAGTFDV	En_Gen	520 pM	6/6
GDVLDEFGIS	VIYADGRRTAYTQDVK	GEKAGDFSF	En_Gibbs	not detected	0/6
GKSLDEMGIS	VIYADGHRTMYANDVK	GHVGAIFMM	En_Gibbs	not detected	0/6
GFDLNEYGIS	VIYADGRRTFYADSVK	GKLAGTFNV	En_HC	1.7 nM	6/6
GFDLNEYGIS	VIYADGMRTAYVDSVK	GNQAGTFDI	En_Gen	270 pM	6/6
GFDLDEYGIS	VIYADGQRTAYADDVK	GQNAGTFDV	En_Gen	430 pM	6/6
GWDLDEYGIS	VIYADGVRTAYQDDVK	GQEAGFLYT	En_Gibbs	not detected	0/6
GFDLNEYGIS	VIYADGMRTAYADKVK	GGNAGTFDV	En_Gen	390 pM	6/6
GMDLNEYGIS	VIYADGSRTSYQEKVK	GLVGGMLDV	En_Gibbs	not detected	0/6
GFSLNEYFIS	AIYSDGERTFYGDSVK	GRLAVTFDS	Ctrl	not detected	0/6
GFDLNEYGIS	VIYADGRRTFYADSVK	GNQAGTFDL	En_HC	120 pM	6/6
GFSLDEYGIS	VIYADGMRTAYADSVK	GEVAGTFDV	En_Gen	640 pM	6/6
GFDLDEYGIS	VIYADGVRTAYADSVK	GQNAGTFDM	En_Gen	1.1 nM	6/6
GFDLNEYGIS	VIYADGRRTFYVDSVK	GEQAGTFDV	En_HC	900 pM	6/6
GFDLNEYGIS	VIYADGMRTAYTDSVK	GQVAGTFDL	En_Gen	230 pM	6/6
GFDLNEYGVS	VIYADGFRTAYTDSVK	GNIFDAIMA	En_Gibbs	48 nM	1/6
GFDLEEYGIS	VIYADGQREAYTENVK	GNSMGMDVL	En_Gibbs	not detected	0/6
GFDLNEYGIS	VIYADGKRTAYADAVK	GNVAGTFDV	En_Gen	170 pM	6/6
GFDLNEYGIS	VIYADGKRTAYADSVK	GQVAGTFDL	En_Gen	490 pM	6/6
GFDLNEYGIS	VIYADGRRTFYADSVK	GEAAGTFVN	En_HC	3.0 nM	6/6
GFDLDEYGIS	VIYADGVRQAYIDSVK	GNWSGTMMY	En_Gibbs	not detected	0/6
GFDLNEYGIS	VIYADGQRTAYADSVK	GNLAGTFDV	En_Gen	300 pM	6/6
GFNLDEYGIS	VIYADGMRNAYRDKVK	GAHSFDLKT	En_Gibbs	not detected	0/6
GFSLDEMGIS	VIYADGQRTAYQDNVK	GVNGVVVFV	En_Gibbs	not detected	0/6
GFDLNEYGIS	VIYADGMRTAYADKVK	GTNAGTFDV	En_Gen	180 pM	6/6
GFDLNEYGIS	VIYADGMRTMYTDSVK	GNEAGTFDS	En_HC	1.2 nM	6/6
GFDLNEYGIS	VIYADGRRTFYTDSVK	GANAGTFDM	En_HC	800 pM	6/6
GFDLNEYGIS	VIYADGVRTFYTDSVK	GEFAGTFDV	En_HC	830 pM	6/6
GFDLNEYGIS	VIYADGMRTAYANDVK	GNVAGTFDV	En_Gen	170 pM	6/6
GFDIDEYGIS	VIYADGMRTFYTDSVK	GEIAGTFDA	En_HC	510 pM	6/6
GYDIEEYGIS	VIYADGKRNAYANSVK	GKWAGAFVD	En_Gibbs	250 nM	1/6
GKSLDEYGIS	VIYADGMRKEYTDSVK	GQFDDGMDL	En_Gibbs	22 nM	1/6
GFDLDEYGIS	VIYADGRRTFYADSVK	GTEAGTFDL	En_HC	660 pM	6/6
GFDLNEYGIS	VIYADGQRTAYSDDVK	GENAGTFDV	En_Gen	810 pM	6/6
GFDLDEYGIS	VIYADGQRTVYADSVK	GENAGTFDL	En_Gen	1.1 nM	6/6
GFDLNEYGIS	VIYADGRRTFYTDSVK	GENAGIFDV	En_HC	2.9 nM	6/6
GKDLEEYGIS	VIYADGRRSDYTDNVK	GHNGYIFMM	En_Gibbs	not detected	0/6
GFDVDKYGIS	VIYADGARKAYQNQFK	GGQAGTFVN	En_Gibbs	790 nM	2/6
GFDLNEYGIS	VIYADGKRTAYADDVK	GNVAGTFDQ	En_Gen	770 pM	6/6
GFDLNEYGIS	VIYADGQRTAYADSVK	GNVAGTFDS	En_HC	140 pM	6/6
GFDLNEYGIS	VIYADGQRTAYSDSVK	GQNAGTFDV	En_Gen	20 pM	6/6
GFDINEYGIS	VIYADGLRTAYSQQVK	GQDLGDVVD	En_Gibbs	not detected	0/6
GFDLNEYGIS	VIYADGMRTAYSDSVK	GENAGTFDQ	En_Gen	400 pM	6/6
GQSLDEYGIS	VIYADGQRKSYMDSVK	GNGQGTLFD	En_Gibbs	82 nM	1/6
GFDLDEYGIS	VIYADGRRTAYADSVK	GNTAGTFDI	En_Gen	280 pM	6/6
GFDLNEYGIS	VIYADGQRTAYADSVK	GNVAGTFDQ	En_Gen	270 pM	6/6
GFDLNEYGIS	VIYADGMRTAYADSVK	GSNAGTFDM	En_Gen	17 nM	6/6
GFDLNEYGIS	VIYADGMRTAYADKVK	GEVAGTFDL	En_Gen	220 pM	5/6
GFDLNEYGIS	VIYADGVRTSYADSVK	GEVAGTFDL	En_Gen	69 pM	3/6
GFSLNEYGIS	VIYADGKRSHYADSVK	GLISGFFDI	En_Gibbs	not detected	0/6
GFDLNEYGIS	VIYADGMRTAYADSVK	GNVAGTFDL	En_Gen	650 pM	6/6
GFDLNNYGIS	VIYADGSRVEYENKFK	GDVAGTFDS	En_Gibbs	990 pM	6/6
GFQLDEYGIS	VIYADGERTAYAQNFK	GNGLVLYEG	En_Gibbs	not detected	0/6
GFDLNEYGIS	VIYADGRRTAYTDSVK	GNTAGTFDV	En_Gen	310 pM	6/6
GFDLNEYGIS	VIYADGHRSFFTDTVK	GQQAGIFNV	En_Gibbs	3.8 nM	6/6

Picked from the list: the 5 lowest averages where every replicate gave a value.

CDR-H1	CDR-H2	CDR-H3	group	Kd (apparent)	detected
GFDLNEYGIS	VIYADGQRTAYSDSVK	GQNAGTFDV	En_Gen	20 pM	6/6
GFDLNEYGIS	VIYADGRRTAYTDNVK	GQNAGTFDS	En_HC	100 pM	6/6
GFDLNEYGIS	VIYADGRRTFYADSVK	GNQAGTFDL	En_HC	120 pM	6/6
GFDLNEYGIS	VIYADGQRTAYADSVK	GNVAGTFDS	En_HC	140 pM	6/6
GFDLNEYGIS	VIYADGMRTAYANDVK	GNVAGTFDV	En_Gen	170 pM	6/6

Data: MIT Lincoln Laboratory AlphaSeq set, Li et al. 2023, doi:10.1038/s41467-023-39022-2, as distributed in FLAb.